Earlier results on one compound are cited in US20160030582A1, “ITRACONAZOLE COMPOSITIONS AND DOSAGE FORMS, AND METHODS OF USING THE SAME” (MAYNE PHARMA INTERNATIONAL PTY. LTD., priority 2012, published 2016).

The conditions of this data set: in vivo.

For the compound `CC(O)C(C)n1ncn(-c2ccc(N3CCN(c4ccc(OCC5COC(Cn6cncn6)(c6ccc(Cl)cc6Cl)O5)cc4)CC3)cc2)c1=O` (centres unmarked) [hydroxyitraconazole], the “expected apparent plasma terminal elimination half-life (t½)” value is 7 h. Further, the elimination half life (200 mg) was 11.5 h.
